Reference: paper PMC4476725 (PLoS Pathogens, 2015)

Test system: Nc1ccn([C@@H]2O[C@H](COP(=O)(O)OP(=O)(O)OP(=O)(O)O)[C@@H](O)[C@H]2F)c(=O)n1
Assay: purified protein, by the assay type
Details: pH 7.5

For (Human respiratory syncytial virus A2), which Km is on record?
The Km was 0.12 ± 0.014 µM.
